The numbers were not newly measured in patent US20220372042A1, “CONDENSED HETEROCYCLES AS BCL-2 INHIBITORS” (Newave Pharmaceutical Inc., priority 2019, published 2022), which cites them from elsewhere.

Protein sequences, listed by entry. Tags and fused reporters are not part of them.
UniProt Q07820, whole entry: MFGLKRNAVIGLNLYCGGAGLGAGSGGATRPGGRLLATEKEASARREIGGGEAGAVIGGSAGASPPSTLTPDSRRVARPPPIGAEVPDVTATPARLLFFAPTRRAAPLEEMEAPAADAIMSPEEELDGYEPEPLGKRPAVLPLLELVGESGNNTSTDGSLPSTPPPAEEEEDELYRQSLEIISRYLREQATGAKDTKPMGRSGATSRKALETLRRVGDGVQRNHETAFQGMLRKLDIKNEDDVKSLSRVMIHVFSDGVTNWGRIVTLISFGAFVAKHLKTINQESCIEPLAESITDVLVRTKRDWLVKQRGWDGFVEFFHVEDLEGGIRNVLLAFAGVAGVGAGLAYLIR
UniProt P10415, whole entry: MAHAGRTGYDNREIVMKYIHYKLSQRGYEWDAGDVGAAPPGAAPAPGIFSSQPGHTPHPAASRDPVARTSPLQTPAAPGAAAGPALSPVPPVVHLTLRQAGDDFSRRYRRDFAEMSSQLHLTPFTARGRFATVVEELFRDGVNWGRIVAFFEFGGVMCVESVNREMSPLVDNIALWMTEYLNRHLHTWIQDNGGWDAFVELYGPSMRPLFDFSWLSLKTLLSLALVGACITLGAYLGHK

One series deals with Mcl-1 (Homo sapiens, UniProt Q07820).
The target of a further series is BCL-2 (Homo sapiens, UniProt P10415).

Regarding `CC1(C)CCC(CN2CCN(c3ccc(C(=O)NS(=O)(=O)c4ccc(NCC5CCOCC5)c([N+](=O)[O-])c4)c(Oc4cnc5[nH]ccc5c4)c3)CC2)=C(c2ccc(Cl)cc2)C1` [ABT-199], the “activity to Mcl-1” value at Mcl-1 is “no activity”.

As for `CC1(C)CCC(c2ccc(Cl)cc2)=C(CN2CCN(c3ccc(C(=O)NS(=O)(=O)c4ccc(N[C@H](CCN5CCOCC5)CSc5ccccc5)c(S(=O)(=O)C(F)(F)F)c4)cc3)CC2)C1` [ABT-263], the Ki on BCL-2 was not above 1 nM.

In general, Ki refers to a dissociation constant, usually derived from enzyme kinetics or from competition with a known ligand.
